# Reference: US20030224416A1, “Schizophrenia related gene” (priority 2002, published 2003)
# Test system: Kv3.1 α-subunit mRNA
# Test: Experiment 1: in situ hybridization of Kv3.1 α-subunit mRNA in brain, chronic PCP rat model of schizophrenia with antipsychotic co-treatment
# Format: in vivo
structure (smiles),measurement,setting,value
"Cc1cc2c(s1)Nc1ccccc1N=C2N1CCN(C)CC1 [Olanzapine, olanzapine]",Kv3.1 α-subunit mRNA expression,"DLStr, PCP + drug 3 mg/kg/day",6.84 ± 0.42 PSL/mm^2
same,Kv3.1 α-subunit mRNA expression,"MG, PCP + drug 3 mg/kg/day",24.56 ± 1.41 PSL/mm^2
same,Kv3.1 α-subunit mRNA expression,"SN, PCP + drug 0.3 mg/kg/day",13.27 ± 1.21 PSL/mm^2
